*1 amine or outer side, *2 acyl side, *3 side chain or, on linkers, in order; H or OH if unused. Where a SMILES comes first, the peptide text is derived from it. [ ]: non-standard residue; d: D form. X1 = CC[C@@H](C)[C@@H](O[*:1])C(=O)[*:2]; NMeVal(β-OH) = CN[C@H](C(=O)O)C(C)(C)O; NMeF = CN[C@@H](Cc1ccccc1)C(=O)O; aIle = CC[C@@H](C)[C@H](N)C(=O)O; NMeV = CN[C@H](C(=O)O)C(C)C
System: Schizo. pombe mutants THR01, THR04, THR05, THR06 and THR07
Assay: Drug resistance of aureobasidin-resistant mutants of Schizo. pombe
Details: for sensitivity of the mutants compared with the parent strain: EMS mutants THR01, THR04, THR05, THR06, THR07 vs JY745

Row | Structure (SMILES) | sensitivity of the mutants compared with the parent strain | resistant to (concentration of aureobasidin A) (EMS mutants THR01, THR04, THR05, THR06, THR07)
1 | C[C@@H]1[C@H](O)[C@@H](C)/C=C/C=C/C=C/C=C/C=C/C=C/C=C/[C@H](O[C@@H]2O[C@H](C)[C@@H](O)[C@H](N)[C@@H]2O)C[C@@H]2O[C@](O)(C[C@@H](O)C[C@@H](O)[C@H](O)CC[C@@H](O)C[C@@H](O)CC(=O)O[C@H]1C)C[C@H](O)[C@H]2C(=O)O [amphotericin B] | the same as the parent strain | –
2 | CC[C@@H](C)[C@@H]1NC(=O)[C@@H]2CCCN2C(=O)[C@H](Cc2ccccc2)N(C)C(=O)[C@H](Cc2ccccc2)NC(=O)[C@H](C(C)C)N(C)C(=O)[C@@H]([C@H](C)CC)OC(=O)[C@H](C(C)(C)O)N(C)C(=O)[C@H](CC(C)C)NC(=O)[C@H](C(C)C)N(C)C1=O [aureobasidin A] (cyclo(F[NMeF]P[aIle][NMeV]L[NMeVal(β-OH)][X1][NMeV])) | – | more than 25 μg/ml
3 | C[C@@H]1C[C@@H]([C@H](O)CC2CC(=O)NC(=O)C2)C(=O)[C@@H](C)C1 [cycloheximide] | the same as the parent strain | –
